# Where “and” joins values, the source holds several entries; their conditions need not be identical. Identical values can stand only once. The list shows a part of the results. Entries with a potency or affinity are not part of this list. Calls of active or inactive are those of the source. Rule as the data show it: active = activation above about 50% (passing the limit was not always enough); inactive = the rest.
# Protein sequences, listed by entry. Tags and fused reporters are not part of them. Lines headed by an entry give the natural chain unless they say otherwise; changes in a name come on top.
# UniProt P41145: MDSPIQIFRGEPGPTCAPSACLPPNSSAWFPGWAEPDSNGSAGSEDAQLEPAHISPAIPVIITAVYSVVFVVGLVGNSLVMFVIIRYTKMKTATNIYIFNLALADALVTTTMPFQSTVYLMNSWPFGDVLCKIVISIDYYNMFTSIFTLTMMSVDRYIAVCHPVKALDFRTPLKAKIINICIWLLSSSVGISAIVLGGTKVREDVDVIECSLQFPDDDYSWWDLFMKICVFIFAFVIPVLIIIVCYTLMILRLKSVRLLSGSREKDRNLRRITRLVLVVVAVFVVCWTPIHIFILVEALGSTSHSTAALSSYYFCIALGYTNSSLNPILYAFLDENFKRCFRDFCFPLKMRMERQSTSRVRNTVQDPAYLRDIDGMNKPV
# Target: Kappa-type opioid receptor (Homo sapiens) (UniProt P41145)
# Assay: kappa opioid receptor activators – cell-based, luminescence, uHTS, primary screen (AID 1777)
# Details: KOR beta-arrestin recruitment, at 10 µM, active compounds read high
row,Compound,activation
1,O=C(Cn1c(Cc2ccccc2)nc2ccccc21)NCc1ccc2c(c1)OCO2,inactive: 0.2%
2,Cc1ccc(-c2csc(NCCn3c(-c4ccncc4)nc4ccccc43)n2)cc1,inactive: -1.7%
3,Cc1ccc(C)c(S(=O)(=O)N2CCN(C(=O)Cn3c(C(F)(F)F)nc4ccccc43)CC2)c1,inactive: 4.8%
4,O=C(Cn1cnc2ccccc21)NCc1ccccc1,inactive: -1.7%
5,CC(C)[C@H](NC(=O)N1CCn2c1nc1ccccc12)C(=O)NCc1ccccc1Cl,inactive: 1.6%
6,Cn1c(=O)n(CCN2CCOCC2)c(=O)c2c1nc1n2CCN1c1ccc(Oc2ccccc2)cc1,inactive: 4.2%
7,COc1ccc(N2CCN(C(=O)Cn3cnc4c3c(=O)n(C)c(=O)n4C)CC2)cc1,inactive: -0.9%
8,O=C(Cn1c(COc2ccccc2)nc2ccccc21)Nc1cc(Cl)cc(Cl)c1,inactive: 21.5%
9,O=C(O)c1ccccc1[As](=O)(O)O,inactive: 2.1%
10,CC(=O)Nc1ccc([As](=O)(O)O)cc1,inactive: -0.1%
11,Cn1c(=O)c2ncn(CC(=O)Nc3ccc4c5c(cccc35)CC4)c2n(C)c1=O,inactive: -4.9%
12,Cc1ccc2c(c1)C1CN(C)CCC1N2C(=O)c1ccccc1NS(=O)(=O)c1ccc(F)cc1 (stereo not given),inactive: -4.2%
13,CCOc1cccc(N2C(=O)CC(n3cnc4ccccc43)C2=O)c1 (stereo not given),inactive: -2%
14,CCCCOC(=O)Cn1c(=N)n(CCN(CC)CC)c2ccccc21,inactive: -0.7%
15,O=C(Cn1c(COc2ccccc2)nc2ccccc21)Nc1cccc(Cl)c1,inactive: -1.5%
16,Cc1cccc(NC(=O)Cn2c(=O)n(C)c3ccccc32)c1,inactive: 2.4%
17,COc1ccc(NC2CCN(C3CC(=O)N(c4ccc(F)c(Cl)c4)C3=O)CC2)cc1 (stereo not given),inactive: -2.1%
18,c1ccc(CN2CCC(Nc3nc(-c4cccs4)nc4ccccc34)CC2)cc1,inactive: 0.5%
19,Cc1ccc(NP(=O)(Oc2ccccc2F)Oc2ccccc2F)nc1,inactive: 1.4%
20,Cn1c(=O)c2c(ncn2CC(=O)Nc2nc3ccc(F)cc3s2)n(C)c1=O,inactive: 0.8%
21,CCOP(=O)(Nc1ccccc1)OCC,inactive: -0.7% and inactive: -2.7%
22,O=C(Cn1c(/C=C/c2ccccc2)nc2ccccc21)Nc1ccc(F)cc1,inactive: -2.3%
23,CCOc1ccc2nc(NC(=O)Cn3cnc4c3c(=O)n(C)c(=O)n4C)sc2c1,inactive: -1.6%
24,CCC(=O)Nc1nc2ccccc2n1CCN1CCOCC1,inactive: -7.7%
25,Cc1csc2c(NC3CCN(Cc4ccccc4)CC3)ncnc12,inactive: -4.4%
